{"sequences": {"note": "Chains of the proteins cited; added tags and fusions are not shown. Residues count along the entry.", "UniProt P28335, 33-458": "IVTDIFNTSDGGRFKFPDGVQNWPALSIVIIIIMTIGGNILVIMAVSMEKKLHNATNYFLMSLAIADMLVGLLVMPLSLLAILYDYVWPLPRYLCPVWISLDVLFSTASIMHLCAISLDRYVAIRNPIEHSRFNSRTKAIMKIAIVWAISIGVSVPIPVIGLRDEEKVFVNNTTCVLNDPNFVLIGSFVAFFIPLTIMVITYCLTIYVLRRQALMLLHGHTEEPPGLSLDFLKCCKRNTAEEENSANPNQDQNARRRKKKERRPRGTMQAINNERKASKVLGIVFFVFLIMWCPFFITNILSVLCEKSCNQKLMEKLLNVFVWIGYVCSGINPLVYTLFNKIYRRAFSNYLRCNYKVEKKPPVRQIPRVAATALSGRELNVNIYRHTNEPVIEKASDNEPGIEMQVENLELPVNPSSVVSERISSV"}, "source": "patent US7728155B2", "about": "“Dihydrobenzofuranyl alkanamines and methods for using same as cns agents” (Wyeth LLC, priority 2003, dated 2010)", "biological_target": "human 5-HT2C receptor (Homo sapiens, UniProt P28335)", "assay": "5-HT2C receptor-stimulated calcium mobilization (FLIPR) in CHO cells", "format": "cell-based", "details": "reference compounds, CHO cells expressing human 5-HT2C", "data": [{"substance": "1-(2,5-dimethoxy-4-iodophenyl)isopropylamine [DOI, reference compound]", "values": [{"measurement": "EC50", "result": 0.5, "unit": "nM"}]}]}
